According to patent US9572347B2, “Method for inactivating a virus” (THE UNIVERSITY OF TOKYO, priority 2009, dated 2017):

Legend:
phages = assay: persistent virus inactivation on repeated exposure to phages in water; assay type: cell-based
Procedure: The same experiment system was also placed in a dark place. After about 24 hours, the phage solution was sampled, and phage concentration was determined. […] After the sampling, phages were added again, the phage solution was sampled after about 24 hours, and the phage concentration was determined in a similar manner.

phage [1] = assay: virus inactivation action in a dry state (low humidity); assay type: cell-based; details: Cu2O 0.08 g/m^2
Source text: The evaluation of the virus inactivation action performed in Example 1 and the like utilized the evaluation system comprising filter paper containing water, and accordingly, the humidity at the time of the evaluation was about 80% or higher. It is known that activity of viruses generally becomes low at high humidity, and the activity becomes high at low humidity. Therefore, it was studied whether the agent for virus inactivation of the present invention successfully maintains the high activity even under low humidity conditions.

[2] = system: methicillin-resistant Staphylococcus aureus (MRSA), Escherichia coli, and Pseudomonas aeruginosa; details: Int. J. Antimicrob. Agents 33, 587-590, 2009; cited from earlier work
Qβ phage (NBRC 20012) = assay: phage inactivation ability test on sample-coated glass plate (Example 1 method); assay type: cell-based
phage [3] = assay: virus inactivation in the presence of an organic substance (gelatin); assay type: cell-based
Procedure: After a predetermined time passed, phage concentration of each sample was measured.
The phage concentration was measured by the following method. Each sample was immersed in 10 mL of a recovery solution (SM buffer), and shaken for 10 minutes on a shaking machine. This phage recovery solution was appropriately diluted, and mixed with a culture medium of Escherichia coli (NBRC 13965) separately cultured (0D600>1.0, 1×10^8 CFU/mL), and the mixture was stirred, and left standing in an incubator at 37° C. for 10 minutes, so that Escherichia coli was infected with the phage. This mixture was inoculated on an agar medium, culture was performed at 37° C. for 15 hours, and then the number of phage plaques was visually counted. The resulting number of plaques was multiplied with the dilution times of the phage recovery solution to obtain the phage concentration.

Substance: cuprous oxide [Cu2O]
- phage concentration (phages; in 1/500 NB medium, after about 24 hours, dark place): below the detection limit
- phage concentration (phages; in 1/500 NB medium, after about 24 hours, irradiation of white light (WL)): below the detection limit
- inactivation effect (phages; operation repeated further 5 times): observed after each of 5 times of the operation
- phage concentration (phages; phages added again, sampled after about 24 hours): below the detection limit
- phage concentration (phage [1]; contact for 4 hours, dark place, 13% humidity): below the detection limit
- phage concentration (phage [1]; light irradiation for 1 hour at 40% humidity): below the detection limit
- antibacterial activity (MBC) [2]: inferior to that of divalent copper compound (CuO) or metallic copper (Cu), and remarkably weaker than that of silver (Ag)
- phage concentration (Qβ phage (NBRC 20012); Example 4: Cu2O immobilized on glass with TEOS binder, 0.24 g/m^2, contact 30 minutes, FIG. 5): markedly decreased
- phage inactivation effect (Qβ phage (NBRC 20012); in the dark place (Dark)): observed
- phage inactivation effect (Qβ phage (NBRC 20012); under light irradiation (WL, white light), 800 luxes): observed
- virus inactivation action (phage [3]; carried Cu2O 0.24 g/m^2, sample containing 0.1% of gelatin, FIG. 10): promptly exhibited
- virus inactivation action (phage [3]; carried Cu2O decreased to 1/10, sample not containing gelatin): achieved at a comparable level
